Laboratory results published in the DeepSol protein solubility set.

Test: soluble on expression in E. coli; label from the status in PepcDB or PDB records

Sequence	soluble on expression in E. coli
MEAGRPRPVLRSVNSREPSQVIFCNRSPRVVLPVWLNFDGEPQPYPTLPPGTGRRIHSYRGHLWLFRDAGTHDGLLVNQTELFVPSLNVDGQPIFANITLPVYTLKERCLQVVRSLVKPENYRRLDIVRSLYEDLEDHPNVQKDLERLTQERIAHQRMGD	soluble
VDPTHFEKRFLKRIRDLGEGHFGKVELCRYDPEGDNTGEQVAVKSLKPESGGNHIADLKKEIEILRNLYHENIVKYKGICTEDGGNGIKLIMEFLPSGSLKEYLPKNKNKINLKQQLKYAVQICKGMDYLGSRQYVHRDLAARNVLVESEHQVKIGDFGLTKAIETDKEYYTVKDDRDSPVFWYAPECLMQSKFYIASDVWSFGVTLHELLTYCDSDSSPMALFLKMIGPTHGQMTVTRLVNTLKEGKRLPCPPNCPDEVYQLMRKCWEFQPSNRTSFQNLIEGFEALLK	soluble
